# AlphaSeq binding of Ab-14 light chain variants to a spike HR2 peptide

All variants were tested on one target, the spike HR2 peptide PDVDLGDISGINAS (SARS-CoV-2).

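Phage display of a naive human antibody library on the peptide gave the parent. AAYL50 was designed without a model: most single CDR substitutions and a random sample of double and triple ones. In AlphaSeq, yeast of one mating type display the scFv and yeast of the other type display the target. The frequency of each diploid, read from paired DNA barcodes, reflects how well the two displayed proteins bind. Each replicate has its own calibration line, from reference interactions of the BCL2 family. Mating was done three times.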

The variants keep the heavy chain, the linker and the frameworks of Ab-14 (scFv order VH, a (GGGGS)3 linker, VL).
VH: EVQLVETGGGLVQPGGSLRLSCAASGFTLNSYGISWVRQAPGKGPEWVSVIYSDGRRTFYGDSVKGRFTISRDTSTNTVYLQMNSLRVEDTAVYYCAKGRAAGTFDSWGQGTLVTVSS
VL: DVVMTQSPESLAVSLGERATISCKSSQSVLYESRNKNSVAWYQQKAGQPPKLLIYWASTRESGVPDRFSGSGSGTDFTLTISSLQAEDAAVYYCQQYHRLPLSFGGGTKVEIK

The whole VL of each variant is written out.
Values are log10 of the apparent Kd in nM; lower means stronger binding.
"ND" means that the variant was in the library but no mating with the target was seen in that replicate; the authors take this as a sign of poor binding, and no number exists.
Three control strains display no target. For library AAYL50, 18% of the pairings with them gave a signal, with a median of 4.19 and one signal in twenty below 2.99, so weak values seen in few replicates may be background. For each scFv, signals with the empty controls are counted beside the result, with their mean in brackets.

VL	replicates, log10 nM	empty controls
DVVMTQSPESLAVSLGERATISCKSSQSVLYEHRNKNSEAWYQQKAGQPPKLLIYWACTRESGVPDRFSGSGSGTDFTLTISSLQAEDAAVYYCQQYHRLPLSFGGGTKVEIK	ND ND ND	0 of 9
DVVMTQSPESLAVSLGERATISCKSEQSVLYEQRNKNSVAWYQQKAGQPPKLLIYWASTRESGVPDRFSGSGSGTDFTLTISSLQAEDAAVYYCQQRHRLPLSFGGGTKVEIK	ND 3.64 ND	1 of 9 (4.95)
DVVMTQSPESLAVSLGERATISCKSSQSVLYESRNKNSVAWYQQKAGQPPKLLIYWWSTQESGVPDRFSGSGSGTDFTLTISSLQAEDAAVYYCMQYHRLPLSFGGGTKVEIK	ND ND ND	2 of 9 (4.00)
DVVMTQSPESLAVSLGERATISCKSSQSTLYESRFKNSVAWYQQKAGQPPKLLIYWASTRESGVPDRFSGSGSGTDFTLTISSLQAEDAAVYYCQQYHRLPLCFGGGTKVEIK	1.61 1.82 1.79	2 of 9 (5.05)
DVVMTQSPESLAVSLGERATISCKSSHFVLYEFRNKNSVAWYQQKAGQPPKLLIYWASTRESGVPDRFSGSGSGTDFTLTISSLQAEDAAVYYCQQYHRLPLSFGGGTKVEIK	3.52 3.91 ND	2 of 9 (3.60)
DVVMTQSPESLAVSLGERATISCNSSQSVLYRSRNFNSVAWYQQKAGQPPKLLIYWASTRESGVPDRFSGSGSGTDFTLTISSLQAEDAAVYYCQQYHRLPLSFGGGTKVEIK	3.10 2.70 3.08	2 of 9 (4.71)
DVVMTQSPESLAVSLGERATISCKSSVSVLYESRNPNSVCWYQQKAGQPPKLLIYWASTRESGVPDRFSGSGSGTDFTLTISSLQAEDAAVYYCQQYHRLPLSFGGGTKVEIK	3.88 ND ND	0 of 9
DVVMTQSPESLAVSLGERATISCKSPQSVLYESRNFNSVAWYQQKAGQPPKLLIYWASTRESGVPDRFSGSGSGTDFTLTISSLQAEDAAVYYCQQYHRLPLYFGGGTKVEIK	3.48 1.87 2.87	0 of 9
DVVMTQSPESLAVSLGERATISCKSSQSVGYESRNKNSTAWYQQKAGQPPKLLIYWASTRESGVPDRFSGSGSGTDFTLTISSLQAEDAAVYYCLQYHRLPLSFGGGTKVEIK	ND 5.20 ND	3 of 9 (4.60)
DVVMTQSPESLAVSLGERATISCKSSQSVLYESRPKHSVPWYQQKAGQPPKLLIYWASTRESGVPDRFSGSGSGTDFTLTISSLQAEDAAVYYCQQYHRLPLSFGGGTKVEIK	ND ND ND	1 of 9 (4.15)
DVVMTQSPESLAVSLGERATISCSSGQSVLYESPNKNSVAWYQQKAGQPPKLLIYWASTRESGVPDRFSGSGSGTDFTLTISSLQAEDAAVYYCQQYHRLPLSFGGGTKVEIK	1.28 1.57 1.48	2 of 9 (4.35)
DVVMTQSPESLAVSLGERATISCKSSQSVLFESRNKNSVAWYQQKAGQPPKLLIYWISTRESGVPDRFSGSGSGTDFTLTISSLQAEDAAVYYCQQYHHLPLSFGGGTKVEIK	3.83 2.88 4.09	3 of 9 (3.92)
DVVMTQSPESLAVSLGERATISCKSSQSCLYESRNKNSVAWYQQKAGQPPKLLIYDASTRESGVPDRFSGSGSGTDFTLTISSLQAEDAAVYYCQWYHRLPLSFGGGTKVEIK	0.04 0.35 0.15	4 of 9 (4.62)
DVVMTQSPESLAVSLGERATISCKSSQSVLYESRNKCSVAWYQQKAGQPPKLLIYWASTRESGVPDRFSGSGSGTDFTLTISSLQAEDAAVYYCQQYHRLPLSFGGGTKVEIK	1.56 1.61 2.08	0 of 9
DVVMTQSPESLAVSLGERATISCKSSQSVLYESQNKNSVAWYQQKAGQPPKLLIYEASTRESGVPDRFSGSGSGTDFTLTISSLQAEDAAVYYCQQRHRLPLSFGGGTKVEIK	ND ND 4.74	3 of 9 (3.75)
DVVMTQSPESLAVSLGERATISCKSSQSPLYESRNMNSVAWYQQKAGQPPKLLIYWASTRESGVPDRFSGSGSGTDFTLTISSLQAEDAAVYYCQQYVRLPLSFGGGTKVEIK	ND ND ND	3 of 9 (3.87)
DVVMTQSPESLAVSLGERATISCKSSQSVLYESRNKNSAAWYQQKAGQPPKLLIYWASTRESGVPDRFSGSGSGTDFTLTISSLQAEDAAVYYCQQLHRLPLNFGGGTKVEIK	3.97 4.25 5.51	2 of 9 (4.86)
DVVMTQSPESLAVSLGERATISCLSSQSLLYESRNKNSVAWYQQKAGQPPKLLIYWASTRESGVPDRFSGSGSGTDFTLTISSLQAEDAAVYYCQQYRRLPLSFGGGTKVEIK	1.83 1.60 2.35	1 of 9 (3.93)
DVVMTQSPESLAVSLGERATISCKSSQSDLYESRNKNEVDWYQQKAGQPPKLLIYWASTRESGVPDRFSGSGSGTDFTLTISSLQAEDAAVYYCQQYHRLPLSFGGGTKVEIK	ND ND 3.91	2 of 9 (3.40)
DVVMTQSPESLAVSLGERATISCKHSQSVLYESRNKNSVAWYQQKAGQPPKLLIYWASTRESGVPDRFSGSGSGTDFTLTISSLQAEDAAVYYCFFYHRLPLSFGGGTKVEIK	0.32 0.56 0.65	0 of 9
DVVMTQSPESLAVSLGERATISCKSSQSTAYESANKNSVAWYQQKAGQPPKLLIYWASTRESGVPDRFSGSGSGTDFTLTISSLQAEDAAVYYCQQYHRLPLSFGGGTKVEIK	0.81 0.94 0.79	3 of 9 (3.05)
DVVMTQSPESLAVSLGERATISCKSSQSVGYESRNKNSVAWYQQKAGQPPKLLIYVASTRESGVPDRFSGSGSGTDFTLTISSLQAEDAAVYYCQQYHRLPPSFGGGTKVEIK	ND ND ND	2 of 9 (3.87)

Excerpt, the first 3 entries:

VL,"replicates, log10 nM",empty controls
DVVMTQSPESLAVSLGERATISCKSSQSVLYEHRNKNSEAWYQQKAGQPPKLLIYWACTRESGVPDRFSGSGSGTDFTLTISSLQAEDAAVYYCQQYHRLPLSFGGGTKVEIK,ND ND ND,0 of 9
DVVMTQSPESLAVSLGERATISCKSEQSVLYEQRNKNSVAWYQQKAGQPPKLLIYWASTRESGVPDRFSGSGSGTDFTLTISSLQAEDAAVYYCQQRHRLPLSFGGGTKVEIK,ND 3.64 ND,1 of 9 (4.95)
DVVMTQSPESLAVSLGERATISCKSSQSVLYESRNKNSVAWYQQKAGQPPKLLIYWWSTQESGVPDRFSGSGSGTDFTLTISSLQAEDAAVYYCMQYHRLPLSFGGGTKVEIK,ND ND ND,2 of 9 (4.00)

Reference: Engelhart et al. 2022, doi:10.1038/s41597-022-01779-4. File: FLAb, binding data.